Test results published in patent US20050272055A1 (priority 2000, published 2005).

Test system: piglets
Set-up: species or system Yorkshire piglets
Settings: in vivo

## CC(=O)CCCCn1c(=O)c2c(ncn2C)n(C)c1=O [Pentoxifylline]
  effect on lethal shock: no effect
